Experimental data taken from US5290776A (dated 1994).

Sequences of proteins named here, by UniProt entry; tags and fusion partners are left off.
UniProt P47745, whole entry: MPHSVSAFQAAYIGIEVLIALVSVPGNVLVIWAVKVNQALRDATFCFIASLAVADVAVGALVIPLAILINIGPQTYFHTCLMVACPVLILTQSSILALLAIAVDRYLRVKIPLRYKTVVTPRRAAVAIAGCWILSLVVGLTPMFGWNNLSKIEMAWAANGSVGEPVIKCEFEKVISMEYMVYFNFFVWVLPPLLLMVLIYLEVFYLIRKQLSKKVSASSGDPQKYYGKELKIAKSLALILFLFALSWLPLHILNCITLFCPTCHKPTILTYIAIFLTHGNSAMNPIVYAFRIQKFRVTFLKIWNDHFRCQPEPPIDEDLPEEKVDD

Biological target: adenosine receptor known as A1 (Cavia porcellus, UniProt P47745)
Assay: Guinea-pig Atrial Bradycardic Test
Assay type: cell-based

`Cn1c(=O)c2[nH]cnc2n(C)c1=O` [1,3-dimethylxanthine] showed a Kb of about 10 µM.
